Test results taken from patent US20200237759A1, “DOSAGE REGIME AND METHOD FOR TREATING PULMONARY ARTERIAL HYPERTENSION” (Altavant Sciences GmbH, priority 2019, published 2020).

Legend:
serum 5-HT = assay: Part 2 MAD biomarker: serum 5-HT change from Day 1; assay type: in vivo, human; conditions: 400 mg fed and all KAR5585 doses pooled
Excerpt: (§1) Biomarkers were to be evaluated in Part 2 by measuring concentrations of serotonin (5-hydroxytryptamine [5-HT]) in serum and 5-hydroxyindoleacetic acid (5-HIAA) in plasma and urine. As well, the relationship of biomarkers to PK parameters was to be evaluated.
(§2) The biomarker analysis was to be based on the Biomarker Population (all subjects with evaluable biomarker measurements at baseline [Day 1 predose] and at least one after dosing [Day 7 or Day 14]).
(§3) Biomarker data were to be collected only in Part 2. The following biomarkers were to be analyzed: • Serum 5-HT • Plasma 5-HIAA • Urine 5-HIAA/24 hours (as measured, adjusted, estimated, and per gram creatinine)
(§4) Linear regression was to be performed using biomarker changes, absolute and relative (%), from Day 1, at predose on Day 7 or Day 14 versus AUC0-24, Cmax, and Cmin in corresponding study days. […]
(§5) The biomarker portion of the study was conducted in Part 2 MAD using the Biomarker Population. The biomarkers evaluated were serum 5-HT and plasma 5-HIAA, as well as urine 5-HIAA/24 hours (as measured, adjusted, estimated, and per gram creatinine). Urinary 5-HIAA was determined by a validated (21 C.F.R. 58, GLP-compliant) method using liquid chromatographic separation and tandem mass spectrometry detection. […]
(§6) Biomarker data were analyzed for each KAR5585 dose separately, for all KAR5585 doses pooled, and for all placebo subjects pooled. […]

[1] = Part 2 MAD plasma pharmacokinetics, BID oral KAR5585 for 14 days; conditions: 400 mg/dose BID Fed, Cohort 4, Day 7 PM
urine 5-HIAA/24 hours = assay: Part 2 MAD biomarker: urine 5-HIAA/24 hours change from Day 1; assay type: in vivo, human; conditions: all dose groups; exception: relative change on Day 14, 100 mg fasting
Excerpt: as §1, §2, §3, §4, §5, §6

[2] = Part 1 SAD plasma pharmacokinetics of KAR5585 and KAR5417 after a single oral dose of KAR5585 (fasting; fed food effect)
[3] = Part 1 SAD urine pharmacokinetics (urinary excretion, renal clearance)

CCOC(=O)[C@@H]1CC2(CCN(c3cc(O[C@H](c4ccc(Cl)cc4-c4ccccc4)C(F)(F)F)nc(N)n3)CC2)CN1 [KAR5585, (S)-ethyl 8-(2-amino-6-((R)-1-(5-chloro-[1,1′-biphenyl]-2-yl)-2,2,2-trifluoroethoxy)pyrimidin-4-yl)-2,8-diazaspiro[4.5]decane-3-carboxylate]
mean difference of absolute and relative changes from Day 1 to Day 14 in serum 5-HT compared to placebo (serum 5-HT): statistically significant in favor of KAR5585 | AUC0-24 (Geo. Mean) [1]: 870 ng·h/mL | differences of absolute and relative changes from Day 1 in measured urine 5-HIAA versus placebo (urine 5-HIAA/24 hours): statistically significant in favor of KAR5585 in all dose groups except one | exposure (AUC0-tau and AUC0-inf) under fed relative to fasting conditions ([2]; 400 mg KAR5585 single dose): 3.1-4.8 fold | increase in Cmax, fed relative to fasting ([2]; 400 mg KAR5585 single dose): 3.2 fold | peak exposure (Cmax) higher under fed relative to fasting conditions ([2]; 400 mg KAR5585 single dose): approximately 3.9 fold | peak mean concentrations higher under fed relative to fasting conditions ([2]; 400 mg KAR5585 single dose): approximately 320% | Cmax Geometric LS Mean Ratio ([2]; Cohort 3B (Fed) versus Cohort 3A (Fasting), 400 mg KAR5585): 3.92 | AUC0-12 Geo. Mean ([2]; KAR5585 400 mg single oral dose, fed, Cohort 3B): 756 ng·h/mL | Plasma AUC0-96 Mean ([3]; KAR5585 100 mg single oral dose): 49.7 ng·h/mL | Plasma AUC0-96 Mean ([3]; KAR5585 200 mg single oral dose): 100 ng·h/mL | Plasma AUC0-96 Mean ([3]; KAR5585 400 mg single oral dose, fasted): 303 ng·h/mL | Plasma AUC0-96 Mean ([3]; KAR5585 400 mg single oral dose, fed): 917 ng·h/mL | Plasma AUC0-96 Mean ([3]; KAR5585 700 mg single oral dose): 436 ng·h/mL | Plasma AUC0-96 Mean ([3]; KAR5585 1200 mg single oral dose): 463 ng·h/mL | Plasma AUC0-96 Mean ([3]; KAR5585 2000 mg single oral dose): 779 ng·h/mL
